## Binding of CDR-mutated scFvs to a peptide of the spike HR2 region

Source: Li et al. 2023 (doi:10.1038/s41467-023-39022-2), MIT Lincoln Laboratory and A-Alpha Bio; data file from the FLAb repository.

Target peptide (SARS-CoV-2 spike, HR2 region): PDVDLGDISGINAS

The variants keep the heavy chain, the linker and the frameworks of Ab-14 (scFv order VH, a (GGGGS)3 linker, VL).
VH: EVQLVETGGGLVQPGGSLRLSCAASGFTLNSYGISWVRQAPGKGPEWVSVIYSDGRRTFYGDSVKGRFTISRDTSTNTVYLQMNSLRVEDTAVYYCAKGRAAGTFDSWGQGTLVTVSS
VL: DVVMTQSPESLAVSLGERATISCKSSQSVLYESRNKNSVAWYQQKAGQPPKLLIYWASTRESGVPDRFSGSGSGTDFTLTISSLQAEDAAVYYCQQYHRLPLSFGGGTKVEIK

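The variants were designed computationally from a first round of random CDR variants and then made and measured. Their group label is 14L_En_Gen (En: ensemble of fine-tuned language models; Gen: genetic algorithm). In AlphaSeq, yeast of one mating type display the scFv and yeast of the other type display the target. Binding brings cells together so that they mate, and sequencing counts the barcode pairs among the diploids. Each replicate has its own calibration line, from reference interactions of the BCL2 family. The assay was run in six technical replicates.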

Variants are written as CDR1, CDR2 and CDR3 of the light chain (limits as in the source). Parent: KSSQSVLYESRNKNSVA, WASTRES, QQYHRLPLS. Affinities are written as log10 Kd with Kd in nM; a lower number is a better binder. An entry "ND" has no value in the source: the pair was not observed among the diploids in that replicate. This suggests poor binding but is not conclusive. Values of this round are not directly comparable with the first-round values of the same sequences.

{"CDR-L1": "KITGTMRFEQKASNNIA", "CDR-L2": "EVTQRSK", "CDR-L3": "QQYYRLPLS", "replicates, log10 nM": "ND ND ND ND 1.47 ND", "empty controls": "0/18"}
{"CDR-L1": "MISETLHMLGMKKNSIA", "CDR-L2": "DLVLRAN", "CDR-L3": "QQYHRLPLM", "replicates, log10 nM": "0.86 1.14 1.44 1.24 2.38 0.90", "empty controls": "1/18 (1.66)"}
{"CDR-L1": "TISGVMQTSSHIKNNVA", "CDR-L2": "EVSTRLD", "CDR-L3": "QQYFRLPLE", "replicates, log10 nM": "0.58 0.41 0.45 0.44 0.31 0.37", "empty controls": "0/18"}
{"CDR-L1": "MVTQMAMTGMMSKRSVA", "CDR-L2": "NAETRED", "CDR-L3": "QQYHHLPLI", "replicates, log10 nM": "2.01 ND ND ND 2.64 2.11", "empty controls": "0/18"}
{"CDR-L1": "SLYEMNYELSGKTHSVA", "CDR-L2": "DNSTRGD", "CDR-L3": "QQYFRLPLD", "replicates, log10 nM": "1.26 1.23 1.27 0.93 1.07 1.52", "empty controls": "2/18 (3.20)"}
{"CDR-L1": "MLSQVLHMAGVKKNSIA", "CDR-L2": "DLVLRAN", "CDR-L3": "QQYHRLPLS", "replicates, log10 nM": "ND 1.59 1.91 1.80 1.53 1.55", "empty controls": "1/18 (4.29)"}
{"CDR-L1": "MVNGIMDHLSKQKNNVA", "CDR-L2": "ETETRNS", "CDR-L3": "QQYDRLPLS", "replicates, log10 nM": "0.84 0.75 0.71 0.53 0.56 0.80", "empty controls": "0/18"}
{"CDR-L1": "KISQMVRVGSTHSNSIA", "CDR-L2": "EEQTRAK", "CDR-L3": "QQYHRLPLA", "replicates, log10 nM": "0.84 0.68 0.49 1.01 0.39 0.41", "empty controls": "0/18"}
{"CDR-L1": "MMSQVWGMGQRHRNNVA", "CDR-L2": "QTSTREP", "CDR-L3": "QQYDRLPLI", "replicates, log10 nM": "0.88 0.62 0.55 0.63 1.13 0.61", "empty controls": "0/18"}
{"CDR-L1": "MLSQMWAIGMKAKNSVA", "CDR-L2": "QANMRFN", "CDR-L3": "QQYDRLPLI", "replicates, log10 nM": "ND ND ND 1.38 ND ND", "empty controls": "0/18"}
{"CDR-L1": "IVSQLMLWGLHAKNSIA", "CDR-L2": "EAVTRYN", "CDR-L3": "QQYDRLPLF", "replicates, log10 nM": "-0.01 0.25 -0.29 -0.37 -0.30 -0.29", "empty controls": "0/18"}
{"CDR-L1": "HIGLSTMLEETVRNSVA", "CDR-L2": "NNSTREK", "CDR-L3": "QQYDRLPLS", "replicates, log10 nM": "1.33 0.57 1.12 1.00 0.93 0.94", "empty controls": "2/18 (3.44)"}
{"CDR-L1": "TLYGLSMSMAKNKNNVA", "CDR-L2": "EMSTREK", "CDR-L3": "QQYDRLPLI", "replicates, log10 nM": "0.37 0.12 0.04 -0.03 0.06 0.43", "empty controls": "0/18"}
{"CDR-L1": "QLYELSVELSGKTHSVA", "CDR-L2": "DNSTRGD", "CDR-L3": "QQYFRLPLD", "replicates, log10 nM": "2.89 ND 2.79 2.76 3.37 2.79", "empty controls": "3/18 (2.93)"}
{"CDR-L1": "HVSMLTLGGLKQRNSVA", "CDR-L2": "QMTTREN", "CDR-L3": "QQYDRLPLA", "replicates, log10 nM": "0.88 1.39 0.74 1.13 1.06 1.04", "empty controls": "0/18"}
{"CDR-L1": "KLLQNTGVGYRWAQNVA", "CDR-L2": "HMSTRED", "CDR-L3": "QQYHRLPFV", "replicates, log10 nM": "0.86 0.57 0.65 0.81 0.77 0.99", "empty controls": "1/18 (2.04)"}
{"CDR-L1": "HMSMLTMMGMRQRNSVA", "CDR-L2": "QMTTREN", "CDR-L3": "QQYDRLPLA", "replicates, log10 nM": "ND 1.94 2.19 1.16 1.00 ND", "empty controls": "0/18"}
{"CDR-L1": "KIGHTLNTLYEKANNVA", "CDR-L2": "DLVEREN", "CDR-L3": "QQYHRLPLS", "replicates, log10 nM": "0.46 0.33 0.49 0.36 0.08 0.27", "empty controls": "0/18"}
{"CDR-L1": "MVSQLMLWGLHAKNSIA", "CDR-L2": "EAHTRLN", "CDR-L3": "QQYDRLPLI", "replicates, log10 nM": "1.99 2.65 2.15 1.94 1.39 1.58", "empty controls": "0/18"}
{"CDR-L1": "KIGHTLNTLYEKANNVA", "CDR-L2": "DLVEREN", "CDR-L3": "QQYFRLPLS", "replicates, log10 nM": "0.83 0.81 1.14 0.54 0.94 1.07", "empty controls": "1/18 (2.77)"}
{"CDR-L1": "KLSMVTGHLSMAKNNVA", "CDR-L2": "EMVTREN", "CDR-L3": "QQYNRLPLS", "replicates, log10 nM": "2.26 2.36 ND ND ND 2.87", "empty controls": "1/18 (2.07)"}
{"CDR-L1": "MMSQVTQSGMRHRNNVA", "CDR-L2": "QTSMREP", "CDR-L3": "QQYDRLPLI", "replicates, log10 nM": "1.48 0.98 1.28 1.18 1.00 1.09", "empty controls": "1/18 (3.38)"}
{"CDR-L1": "HITMGMYVMGRHNSSIA", "CDR-L2": "QAETRAK", "CDR-L3": "QQYDRLPLI", "replicates, log10 nM": "1.78 2.24 1.97 3.11 1.99 2.18", "empty controls": "1/18 (3.27)"}
{"CDR-L1": "MMSQVTGMGQRHRNNVA", "CDR-L2": "QTSEREI", "CDR-L3": "QQYDRLPLI", "replicates, log10 nM": "1.48 1.38 0.61 1.01 0.89 1.61", "empty controls": "0/18"}
{"CDR-L1": "NIYQAMHTLMQAKNNVA", "CDR-L2": "DVTERND", "CDR-L3": "QQYFRLPLS", "replicates, log10 nM": "ND 0.59 ND ND ND ND", "empty controls": "0/18"}
{"CDR-L1": "KISQMVRVGLTHSNSIA", "CDR-L2": "EEETRAK", "CDR-L3": "QQYHRLPLA", "replicates, log10 nM": "1.93 1.27 1.35 1.01 1.66 1.46", "empty controls": "4/18 (2.77)"}
{"CDR-L1": "TISGVMNSQSHVKNNVA", "CDR-L2": "EMSTRDE", "CDR-L3": "QQYVRLPLA", "replicates, log10 nM": "0.41 0.19 0.22 0.11 0.16 0.32", "empty controls": "1/18 (1.58)"}
{"CDR-L1": "KIGATLNTLEHKQNNVA", "CDR-L2": "DLVTREN", "CDR-L3": "QQYFRLPLS", "replicates, log10 nM": "0.03 0.04 -0.07 -0.04 -0.14 0.29", "empty controls": "1/18 (2.20)"}
{"CDR-L1": "KISMLINMTFEQSNNVA", "CDR-L2": "EMATREE", "CDR-L3": "QQYNRLPLS", "replicates, log10 nM": "0.59 0.96 0.59 1.19 0.74 1.09", "empty controls": "0/18"}
{"CDR-L1": "TLSQMSGVEAVKHNNVA", "CDR-L2": "ENSTREN", "CDR-L3": "QQYDRLPLA", "replicates, log10 nM": "ND ND ND ND ND 2.65", "empty controls": "0/18"}

Excerpt, the first 3 entries:

{"CDR-L1": "KITGTMRFEQKASNNIA", "CDR-L2": "EVTQRSK", "CDR-L3": "QQYYRLPLS", "replicates, log10 nM": "ND ND ND ND 1.47 ND", "empty controls": "0/18"}
{"CDR-L1": "MISETLHMLGMKKNSIA", "CDR-L2": "DLVLRAN", "CDR-L3": "QQYHRLPLM", "replicates, log10 nM": "0.86 1.14 1.44 1.24 2.38 0.90", "empty controls": "1/18 (1.66)"}
{"CDR-L1": "TISGVMQTSSHIKNNVA", "CDR-L2": "EVSTRLD", "CDR-L3": "QQYFRLPLE", "replicates, log10 nM": "0.58 0.41 0.45 0.44 0.31 0.37", "empty controls": "0/18"}

As a blank, each scFv also met three strains without target: over all light chain designs, 4% of these pairings were detected, typically at 2.64 and seldom below 1.59. Also given: how often the same scFv was detected with the empty control strains, with their mean in brackets. Of ten entries with the parent sequence, four were seen in most replicates (averages 0.34 to 2.37), three in one and three in none, so single entries are noisy. The authors averaged sequences with at least three values out of six and counted those with two or fewer as poor binders.